From the OPERA property sets (Mansouri et al. 2018)

Compound | log10 OH rate constant (cm³/molecule/s)
COP(=S)(OC)OC | -10.2
C1CN1 | -11.2
